{
  "source": "ChEMBL document CHEMBL1649228",
  "about": "“In vivo antibacterial activity of vertilmicin, a new aminoglycoside antibiotic” (2009)",
  "key": {"Klebsiella pneumoniae [1]": {"tested_on": "Klebsiella pneumoniae", "details": "935"}, "Escherichia coli [2]": {"tested_on": "Escherichia coli", "details": "ATCC 25922"}, "Escherichia coli [3]": {"tested_on": "Escherichia coli", "details": "1515"}, "Escherichia coli [4]": {"tested_on": "Escherichia coli", "details": "9612, 5.18 mg/kg"}, "Escherichia coli [5]": {"tested_on": "Escherichia coli", "details": "9612, 14.4 mg/kg"}, "Escherichia coli [6]": {"tested_on": "Escherichia coli", "details": "9612, 24 mg/kg"}, "Klebsiella pneumoniae [7]": {"tested_on": "Klebsiella pneumoniae", "details": "967"}, "Escherichia coli [8]": {"tested_on": "Escherichia coli", "details": "9612, 8.64 mg/kg"}, "Escherichia coli [9]": {"tested_on": "Escherichia coli", "details": "9612, 40 mg/kg"}, "Escherichia coli [10]": {"tested_on": "Escherichia coli", "details": "9612, 1 mg/ml"}},
  "data": [
    {"sequence": "GENTAMICIN", "values": [
      {"measurement": "MIC", "setting": "Klebsiella pneumoniae [1]", "result": 0.5, "unit": "µg/mL"},
      {"measurement": "MIC", "setting": "Escherichia coli [2]", "result": 0.5, "unit": "µg/mL"},
      {"measurement": "MIC", "setting": "Escherichia coli [3]", "result": 0.5, "unit": "µg/mL"},
      {"measurement": "log10CFU/g", "setting": "Escherichia coli [4]", "result": 3.71},
      {"measurement": "log10CFU/g", "setting": "Escherichia coli [5]", "result": 3.34},
      {"measurement": "log10CFU/g", "setting": "Escherichia coli [6]", "result": 3.24},
      {"measurement": "MIC", "setting": "Klebsiella pneumoniae [7]", "result": 0.5, "unit": "µg/mL"},
      {"measurement": "log10CFU/g", "setting": "Escherichia coli [8]", "result": 3.44},
      {"measurement": "log10CFU/g", "setting": "Escherichia coli [9]", "result": 2.78},
      {"measurement": "log10CFU/g", "setting": "Escherichia coli [10]", "result": 8.31}
    ]}
  ]
}
